Experimental findings from US6645774B1 (Synaptic Pharmaceutical Corporation, priority 1994, dated 2003) are described below.

Protein sequences, listed by entry. Tags and fused reporters are not part of them.
UniProt P21555, whole entry: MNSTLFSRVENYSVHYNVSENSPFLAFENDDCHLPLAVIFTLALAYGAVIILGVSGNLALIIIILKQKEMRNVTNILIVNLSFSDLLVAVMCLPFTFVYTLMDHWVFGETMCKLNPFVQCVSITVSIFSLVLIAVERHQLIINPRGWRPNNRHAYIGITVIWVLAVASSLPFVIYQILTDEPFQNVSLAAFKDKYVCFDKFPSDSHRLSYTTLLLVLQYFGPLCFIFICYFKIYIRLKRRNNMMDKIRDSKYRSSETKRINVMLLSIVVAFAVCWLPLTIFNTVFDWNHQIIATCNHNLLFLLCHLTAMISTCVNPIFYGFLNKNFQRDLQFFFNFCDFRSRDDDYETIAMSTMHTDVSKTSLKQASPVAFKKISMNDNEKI

For test [1], the target named is T1, rat Y1 receptor (Rattus norvegicus, UniProt P21555). In words: ^125I-PYY binding to cloned rat Y1 receptor (COS-7 membranes). The settings on record: read-out: Ki rat Y1 receptor; cloned rat Y-type receptors; expression system not given.
Test [2] deals with T1, rat Y1 receptor. As to the kind of experiment: Block of NPY-induced activation of rat Y1 receptors. It counts as cell-based.

For `NC(N)=NCCC[C@@H](NC(=O)C(c1ccccc1)c1ccccc1)C(=O)NCc1ccc(O)cc1` [BIBP 3226], the Ki at rat Y1 receptor [1] was 0.02 µM. Moreover, the Kb at rat Y1 receptor [2] is 0.0094 µM.

In general, Ki refers to a measure of affinity in units of concentration, obtained from inhibition or displacement.
